Assay results reported in patent publication US20250188095A1, “DISUBSTITUTED OCTAHYDROPYRROLO[3,4-c]PYRROLYL METHYL KETONE DERIVATIVE AND USE THEREOF” (JIANGSU NHWA PHARMACEUTICAL CO., LTD, priority 2022, published 2025).
Where “and” joins values, the source holds several entries; their conditions need not be identical. Identical values can stand only once.

The chains behind the UniProt entries cited, without tags or fusion partners.
UniProt O43614, whole entry: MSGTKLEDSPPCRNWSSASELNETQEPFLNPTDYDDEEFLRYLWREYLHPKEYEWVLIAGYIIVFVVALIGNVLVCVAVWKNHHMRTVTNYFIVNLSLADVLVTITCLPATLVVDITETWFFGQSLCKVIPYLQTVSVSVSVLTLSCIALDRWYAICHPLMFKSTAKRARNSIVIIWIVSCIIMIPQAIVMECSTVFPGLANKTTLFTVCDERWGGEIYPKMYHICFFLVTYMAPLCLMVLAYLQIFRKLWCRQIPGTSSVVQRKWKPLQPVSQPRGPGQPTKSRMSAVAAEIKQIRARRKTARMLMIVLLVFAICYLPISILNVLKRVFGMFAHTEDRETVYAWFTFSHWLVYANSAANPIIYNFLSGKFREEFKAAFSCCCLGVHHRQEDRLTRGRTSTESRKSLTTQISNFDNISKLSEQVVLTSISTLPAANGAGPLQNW
UniProt O43613, whole entry: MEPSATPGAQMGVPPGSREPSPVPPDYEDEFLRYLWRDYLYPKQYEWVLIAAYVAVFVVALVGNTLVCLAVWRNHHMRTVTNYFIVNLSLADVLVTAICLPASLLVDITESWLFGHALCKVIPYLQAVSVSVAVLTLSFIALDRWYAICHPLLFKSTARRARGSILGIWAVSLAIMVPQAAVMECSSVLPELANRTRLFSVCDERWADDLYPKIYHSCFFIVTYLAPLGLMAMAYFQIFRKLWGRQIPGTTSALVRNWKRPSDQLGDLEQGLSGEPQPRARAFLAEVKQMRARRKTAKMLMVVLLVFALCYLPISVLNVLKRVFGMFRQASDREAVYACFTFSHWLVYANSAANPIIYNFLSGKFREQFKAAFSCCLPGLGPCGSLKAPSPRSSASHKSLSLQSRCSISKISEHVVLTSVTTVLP

Columns and labels:
OX2 receptor = OX2 receptor (Homo sapiens (Human), UniProt O43614); assay: In vitro activity test (Cisbio IP-one, CHO-K1-OX2 cells, antagonism of EC80 agonist); assay type: cell-based
Experimental: (§1) (1) Preparation of a reaction buffer (1×Stimulation buffer) required for the experiment: The 5×Stimulation buffer and ddH2O in the Cisbio IP-one kit were diluted in a ratio of 1:4 for later use.
(§2) (2) Compound preparation: The compound was diluted with DMSO to obtain a 5 mM stock solution, followed by a 3.16-fold dilution to obtain 10 gradients, and then the prepared compound was diluted with the Stimulation buffer to the corresponding concentrations (4×) for later use.
(§3) (3) Cell preparation: CHO-K1-OX1 and CHO-K1-OX2 cells on the culture dish were digested with trypsin, and the cells were washed off with culture medium and collected into 5 mL centrifuge tubes. The cells were centrifuged at 1000 rpm for 5 min, and the supernatant was discarded. […] The cells were resuspended in 1×Stimulation buffer and counted using a Countstar cell counter, and the cell density was adjusted to 1.71×10^6 cells/mL for later use. […]
(§4) (10) Experimental readings: The plate was read on Envision, readings from the 665 nm and 615 nm channels were taken, and the ratio of 665 nm/615 nm readings was calculated.
(§5) Based on the antagonistic effect values of the compound sample at different concentration test points, antagonistic curves of the compound sample against the orexin receptors were fitted using GraphPad Prism software, and the IC50 was calculated.

OX1 receptor = OX1 receptor (Homo sapiens (Human), UniProt O43613); assay: In vitro activity test (Cisbio IP-one, CHO-K1-OX1 cells, antagonism of EC80 Orexin A); assay type: cell-based
Experimental: as §1, §2, §3, §4, §5

ICR mice [1] = assay: Autonomous activities of mice; settings: mouse, in vivo
Experimental: Male ICR mice aged 6-9 weeks were randomly divided into groups based on body weight balance, with 8 or 9 mice per group, and the groups were given blank vehicle and 10, 30, and 100 mg/kg of the test compound, respectively. The animals were placed in a test chamber immediately after administration, and the activity distances of the animals within 60 min were recorded and analyzed with Top Scan Version 3.0. […] Experimental data were expressed as mean±standard deviation (Mean±SD). One-way ANOVA analysis was performed using SPSS 21.0 statistical software, and pairwise comparisons were performed using Dunnett's test, with p<0.05 represented by *.

ICR mice [2] = assay: Pentobarbital sodium synergistic sleep test; settings: mouse, in vivo
Experimental: Male ICR mice aged 6-9 weeks were randomly divided into groups based on body weight balance, with 8 mice per group, and the groups were given blank vehicle and 3, 10, and 30 mg/kg of the test compound, respectively. After 5 min, pentobarbital sodium was intraperitoneally injected at 45 mg/kg. The moments when righting reflexes disappeared and the moments when righting reflexes reappeared in mice were recorded. Sleep latency=moment when righting reflex disappeared−moment when pentobarbital sodium was administered, and sleep duration=moment when righting reflex reappeared−moment when righting reflex disappeared. […] Experimental data were expressed as mean±standard deviation (Mean±SD). One-way ANOVA analysis was performed using SPSS 21.0 statistical software, and pairwise comparisons were performed using Dunnett's test, with p<0.05 represented by *.

In the case of `Cc1cc(C)nc(N2CC3CN(C(=O)c4c(F)cccc4-n4nccn4)CC3C2)n1` (centres unmarked) [Seltorexant, reference compound], the IC50 (OX2 receptor) is reported as less than 100 nM, the IC50 (OX1 receptor) is reported as 300 to 1000 nM and the “Movement distance (m)” value (ICR mice [1]) is reported as 62.39 ± 23.31 m and 36.95 ± 9.75 m and 32.68 ± 13.49 m. For the same compound, the “Sleep duration” value (ICR mice [2]) was 60.41 ± 11.91 min and the “Sleep latency” value (ICR mice [2]) was 5.05 ± 2.67 min.
